The values that follow come from ChEMBL document CHEMBL5029145, “Discovery of AZD8154, a Dual PI3Kγδ Inhibitor for the Treatment of Asthma” (J Med Chem, 2021).

Experiment [1] deals with T1, Phosphatidylinositol 4,5-bisphosphate 3-kinase catalytic subunit delta isoform (Homo sapiens, UniProt O00329).
T1 sequence (O00329 whole entry): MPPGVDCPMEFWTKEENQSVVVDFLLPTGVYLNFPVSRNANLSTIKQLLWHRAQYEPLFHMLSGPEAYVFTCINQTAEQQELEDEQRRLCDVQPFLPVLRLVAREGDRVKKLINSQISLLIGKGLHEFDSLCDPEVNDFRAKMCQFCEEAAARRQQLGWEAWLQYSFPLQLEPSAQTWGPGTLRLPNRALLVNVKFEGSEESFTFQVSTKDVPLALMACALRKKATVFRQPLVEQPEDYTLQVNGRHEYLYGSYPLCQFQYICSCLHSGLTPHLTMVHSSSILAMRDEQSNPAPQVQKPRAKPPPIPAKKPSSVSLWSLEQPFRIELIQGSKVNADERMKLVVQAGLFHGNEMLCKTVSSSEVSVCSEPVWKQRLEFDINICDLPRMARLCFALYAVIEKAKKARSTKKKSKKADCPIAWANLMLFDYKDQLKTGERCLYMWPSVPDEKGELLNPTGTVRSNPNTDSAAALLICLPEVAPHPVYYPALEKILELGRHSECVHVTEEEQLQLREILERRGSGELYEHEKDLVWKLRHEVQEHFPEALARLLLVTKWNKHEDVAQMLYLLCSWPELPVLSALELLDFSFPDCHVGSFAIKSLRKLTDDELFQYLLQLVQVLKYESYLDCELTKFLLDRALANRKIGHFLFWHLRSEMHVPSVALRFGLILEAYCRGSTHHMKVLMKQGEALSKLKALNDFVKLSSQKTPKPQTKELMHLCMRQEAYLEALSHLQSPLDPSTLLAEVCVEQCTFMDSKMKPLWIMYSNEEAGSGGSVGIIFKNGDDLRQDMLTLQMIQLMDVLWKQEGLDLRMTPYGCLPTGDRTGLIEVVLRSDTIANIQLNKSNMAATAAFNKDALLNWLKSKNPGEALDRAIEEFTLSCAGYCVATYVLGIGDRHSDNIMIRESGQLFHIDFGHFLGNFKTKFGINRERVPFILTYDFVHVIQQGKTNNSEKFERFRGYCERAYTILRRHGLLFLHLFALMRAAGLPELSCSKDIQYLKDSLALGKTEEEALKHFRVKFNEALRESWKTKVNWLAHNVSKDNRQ
Put plainly: Inhibition of recombinant human PI3Kdelta assessed as reduction in ADP production using Dic8-PIP2 as substrate pre-treated for 15 mins followed by substrate addition measured after 60 mins by ADP-glo assay. In general terms: ADP-Glo first removes unused ATP, then detects ADP through luciferase.

The target of experiment [2] is T1, Phosphatidylinositol 4,5-bisphosphate 3-kinase catalytic subunit delta isoform. Description: Inhibition of PI3Kdelta in anti-IgM-stimulated human JeKo-1 cells assessed as inhibition of AKT phosphorylation at Ser473 residue incubated for 60 mins by TR-FRET assay. In general terms: TR-FRET usually uses a lanthanide donor and a delayed reading to cut background.

For the compound `Cc1nc(Nc2cccc(N3CCOCC3=O)n2)sc1-c1cc2c(c(S(=O)(=O)NC3COC3)c1)C(=O)N([C@@H](C)C1CC1)C2`, the IC50 (usually the midpoint of a concentration-inhibition curve) in experiment [1] is 1 nM; in experiment [2], 3.98 nM.
Take `Cc1nc(Nc2cccc(N3CCOCC3=O)n2)sc1-c1cc2c(c(S(C)(=O)=O)c1)C(=O)N([C@@H](C)C1CC1)C2`: the IC50 in experiment [1] was 1 nM; in experiment [2], 7.94 nM.
